# Apparent affinities of Ab-91 variants for a coronavirus HR2 peptide

Source: Engelhart et al. 2022 (doi:10.1038/s41597-022-01779-4), MIT Lincoln Laboratory and A-Alpha Bio; data file from the FLAb repository.

All variants were tested on one target, the spike HR2 peptide PDVDLGDISGINAS (SARS-CoV-2).

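The parent was found by panning a naive human phage display library on the peptide. AAYL51 was designed without a model: most single CDR substitutions and a random sample of double and triple ones. Affinity was read by AlphaSeq, a pooled yeast mating assay with surface-displayed partners. Pairs that bind mate more often; barcode pairs of the diploids are counted by sequencing. Scores were corrected for input abundance and mapped to Kd with protein pairs of known affinity run in the same pool. The assay was run in three technical replicates.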

Parent scFv Ab-91: VL joined to VH by the linker GGGGSGGGGSGGGGS. Changes lie in the heavy chain CDRs alone.
VL: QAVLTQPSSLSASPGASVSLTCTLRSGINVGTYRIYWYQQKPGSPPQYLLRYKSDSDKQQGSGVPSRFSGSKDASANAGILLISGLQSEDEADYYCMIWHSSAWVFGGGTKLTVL
VH: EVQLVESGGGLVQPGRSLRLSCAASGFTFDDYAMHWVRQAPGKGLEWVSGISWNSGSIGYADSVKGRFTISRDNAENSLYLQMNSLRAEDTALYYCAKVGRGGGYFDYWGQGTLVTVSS

Substitutions are numbered in sequence along the VH above, starting at 1 (not Kabat).
All variants listed here change W53 of the VH, counted from its first residue.
Scale: log10 of Kd in nM, estimated from mating counts; low values are strong binders.
A mean of the replicates is given; it leaves out those without a signal.
"ND" marks a missing value. The strain was present, yet no cells mated with the target were sequenced in that replicate, which points to weak or no binding.
Three control strains display no target. For library AAYL51, 21% of the pairings with them gave a signal, with a median of 4.54 and one signal in twenty below 3.26, so weak values seen in few replicates may be background. Also given: how often the same scFv was detected with the empty control strains.
In this assay the parent's reference entry averaged 1.86; its copy inside this library read 0.88.

With W53M/S57Y/K65Q the result was ND, ND, ND (controls 0 of 9). With D31K/W53Q/G102C the result was 4.35, 3.23, 4.42 (mean 4.00; controls 1 of 9). For D30S/W53E/G104I, the assay gave ND, ND, ND (controls 1 of 9). Variant W53A/V99W gave 4.75, 3.97, 4.83 (mean 4.52; controls 5 of 9). For W53K/N54C/S57T, the assay gave 4.33, 5.92, ND (mean 5.12; controls 4 of 9).

Variant G26V/H35W/W53R showed 2.51, 2.84, 2.79 (mean 2.71; controls 1 of 9). For H35S/W53I, the assay gave 4.46, 4.91, 5.10 (mean 4.82; controls 5 of 9). Variant W53I/S63D/G102K gave 3.75, 3.89, 4.08 (mean 3.91; controls 9 of 9). Variant W53R/N54G/V99R gave 4.87, ND, ND (controls 1 of 9). With F27R/W53P/R101A the result was 1.34, 1.23, 0.80 (mean 1.12; controls 0 of 9).

For W53F/A61R, the assay gave 1.35, 1.47, 0.87 (mean 1.23; controls 2 of 9). For W53V/S57H/Y105A, the assay gave 3.39, 3.28, 3.50 (mean 3.39; controls 6 of 9). For S52Y/W53E/S63R, the assay gave ND, ND, ND (controls 0 of 9). Variant W53P/G102V showed ND, ND, 4.30 (controls 0 of 9). For A33G/W53A, the assay gave -0.01, 0.10, -0.66 (mean -0.19; controls 1 of 9).

With F27S/W53R/K65H the result was 5.39, 5.49, ND (mean 5.44; controls 2 of 9). For G26F/W53A, the assay gave 4.38, ND, 5.63 (mean 5.01; controls 5 of 9). Variant G26M/W53H/I58P showed ND, ND, ND (controls 0 of 9). For I51V/W53D, the assay gave 4.59, 5.15, ND (mean 4.87; controls 3 of 9). Variant I51H/W53H/D107I gave 5.51, 4.98, 5.37 (mean 5.29; controls 4 of 9).

For S52W/W53K/D62P, the assay gave 4.52, 4.59, ND (mean 4.55; controls 2 of 9). Variant D30K/Y32E/W53F showed 4.64, ND, ND (controls 6 of 9). Variant M34K/W53Q/G102A showed 4.71, ND, ND (controls 2 of 9). For W53D/G102K/F106Y, the assay gave ND, ND, ND (controls 4 of 9). Variant D31T/W53V/G104Y gave ND, ND, 3.92 (controls 3 of 9).

Variant G26I/D31Y/W53Q gave ND, ND, ND (controls 2 of 9). With G50N/W53I the result was ND, 3.73, ND (controls 0 of 9). With A33R/W53N/D62C the result was 5.55, 5.18, ND (mean 5.37; controls 8 of 9). For G26Q/W53G/S63M, the assay gave ND, 5.38, ND (controls 2 of 9). Variant G26C/W53D/Y60L showed ND, ND, ND (controls 0 of 9).

Variant F27M/I51L/W53A showed 2.27, 2.17, 2.36 (mean 2.27; controls 1 of 9).

For reference, 5 entries of the list once more:

changes,log10 Kd (nM) by replicate,mean log10 Kd (nM),empty controls
D30K/Y32E/W53F,"4.64, ND, ND",4.64,6 of 9
G26F/W53A,"4.38, ND, 5.63",5.01,5 of 9
G26V/H35W/W53R,"2.51, 2.84, 2.79",2.71,1 of 9
W53I/S63D/G102K,"3.75, 3.89, 4.08",3.91,9 of 9
W53A/V99W,"4.75, 3.97, 4.83",4.52,5 of 9